Experimental data published in PubChem BioAssay AID434978 (Johns Hopkins Ion Channel Center, 2010).
The list shows a part of the results, in another mix than the full data. Activity calls are given as the source filed them.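 The calls were made as follows: active = primary screen active whose calcium signal fell more than 3 SD beyond the full-serotonin control mean in both duplicate plates; inactive = the rest.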

Test: calcium flux inhibitors in TRPC4/5HT1a cells, confirmation, counter-screen for TRPC4 inhibitor project, cell-based, second counter screen, HEK293 TRPC4/5HT1a, Fluo-4 (AID 434978)
Details: Fluo-4 calcium flux, at 10 µM, serotonin added to trigger calcium flux; stronger effect = higher value

SMILES	inhibition
CN(C)CCOC(=O)C(O)(c1ccccc1)C1CCCC1 (configuration not stated)	active: 33.2%
CCN(CC)CCCOC(=O)C(O)(c1ccccc1)c1ccccc1	inactive
